Test results published in paper PMC7217742 (Addiction biology, 2019).

Chains of the proteins cited; added tags and fusions are not shown. Residues count along the entry.
UniProt Q63380, 1-617: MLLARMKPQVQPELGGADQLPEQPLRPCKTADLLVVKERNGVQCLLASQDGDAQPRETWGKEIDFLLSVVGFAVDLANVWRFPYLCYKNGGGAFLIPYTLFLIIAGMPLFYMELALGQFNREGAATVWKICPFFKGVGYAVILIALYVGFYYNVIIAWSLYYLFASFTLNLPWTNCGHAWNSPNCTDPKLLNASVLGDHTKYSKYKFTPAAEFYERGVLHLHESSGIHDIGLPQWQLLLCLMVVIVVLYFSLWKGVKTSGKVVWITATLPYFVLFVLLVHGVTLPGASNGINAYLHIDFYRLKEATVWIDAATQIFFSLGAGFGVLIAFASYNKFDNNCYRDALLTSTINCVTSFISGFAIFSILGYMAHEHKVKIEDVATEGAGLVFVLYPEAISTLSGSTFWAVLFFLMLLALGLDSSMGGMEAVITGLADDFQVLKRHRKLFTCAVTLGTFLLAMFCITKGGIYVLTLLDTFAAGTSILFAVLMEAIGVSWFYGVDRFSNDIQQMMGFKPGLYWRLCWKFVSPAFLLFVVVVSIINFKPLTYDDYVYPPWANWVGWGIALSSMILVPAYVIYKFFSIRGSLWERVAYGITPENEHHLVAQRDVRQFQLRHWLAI
UniProt P31652, whole entry: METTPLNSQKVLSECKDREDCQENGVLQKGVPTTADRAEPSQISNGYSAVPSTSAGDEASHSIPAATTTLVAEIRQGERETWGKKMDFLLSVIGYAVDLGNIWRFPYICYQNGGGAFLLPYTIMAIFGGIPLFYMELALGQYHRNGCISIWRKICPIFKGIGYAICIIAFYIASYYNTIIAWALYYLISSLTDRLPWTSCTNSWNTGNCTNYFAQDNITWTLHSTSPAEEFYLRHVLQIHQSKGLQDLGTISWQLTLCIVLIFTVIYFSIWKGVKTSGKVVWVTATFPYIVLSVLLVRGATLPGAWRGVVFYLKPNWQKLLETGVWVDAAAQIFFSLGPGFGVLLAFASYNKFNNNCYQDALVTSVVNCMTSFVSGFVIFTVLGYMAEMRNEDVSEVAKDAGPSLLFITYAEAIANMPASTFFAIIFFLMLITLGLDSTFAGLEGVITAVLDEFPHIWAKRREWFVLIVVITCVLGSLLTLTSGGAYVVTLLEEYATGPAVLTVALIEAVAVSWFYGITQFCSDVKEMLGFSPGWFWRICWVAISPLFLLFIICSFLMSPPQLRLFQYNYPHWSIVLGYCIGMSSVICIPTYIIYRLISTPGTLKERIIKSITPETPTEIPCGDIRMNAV

How the values were obtained:
NET = NET (Rattus norvegicus, UniProt Q63380); experiment: Inhibition of [3H]norepinephrine uptake in rat brain synaptosomes; assay type: biochemical
SERT = SERT (Rattus norvegicus, UniProt P31652); experiment: Inhibition of [3H]5-HT uptake in rat brain synaptosomes; assay type: biochemical

COC(=O)[C@H]1[C@@H](OC(=O)c2ccccc2)C[C@@H]2CC[C@H]1N2C [Cocaine, (−)-cocaine, reference compound]
IC50 (NET): 247 ± 20.7 nM | IC50 (SERT): 318 ± 7.2 nM
